Assay results from patent publication EP0903346A1, “SYDNONE IMINE DERIVATIVES” (Chugai Seiyaku Kabushiki Kaisha, priority 1995, dated 1997).

System: isolated rat aorta
Assay: Test with the use of isolated rat aorta (relaxation of potassium chloride contraction)
Conditions: read-out: Rat aorta IC50
Experimental: The thoracic aorta was taken out from male Sprague Dawley rats weighing 450 to 600 g and cut into circular samples of 2 mm in width. […] The contraction reactions of the samples were isometrically recorded with FD pick-up. After 1 to 1.5 hours of equilibration, 30 mM potassium chloride was added to contract the tissue. […] As the test compounds, the invention compounds obtained in the above Examples were employed.

IC50: 980 nM
Compound: CC(=O)SC[C@@H](C)C(=O)[N-]c1c[n+](N2CCN(CCSc3cc(C(C)(C)C)c(O)c(C(C)(C)C)c3)CC2)no1 [Example 44, N-((S)-3-(Acetylthio)isobutyryl)-3-(4-(2-(3,5-di-t-butyl-4-hydroxyphenylthio)ethyl)piperazin-1-yl)sydnonimine]
